Assay results published in article PMC4816084 (Bioorganic & medicinal chemistry letters, 2016).

By UniProt entry, the sequences of proteins in these tests, tags left out. Where a name states a change or a piece, a line headed by the entry shows the natural chain unless it says otherwise.
UniProt P14920: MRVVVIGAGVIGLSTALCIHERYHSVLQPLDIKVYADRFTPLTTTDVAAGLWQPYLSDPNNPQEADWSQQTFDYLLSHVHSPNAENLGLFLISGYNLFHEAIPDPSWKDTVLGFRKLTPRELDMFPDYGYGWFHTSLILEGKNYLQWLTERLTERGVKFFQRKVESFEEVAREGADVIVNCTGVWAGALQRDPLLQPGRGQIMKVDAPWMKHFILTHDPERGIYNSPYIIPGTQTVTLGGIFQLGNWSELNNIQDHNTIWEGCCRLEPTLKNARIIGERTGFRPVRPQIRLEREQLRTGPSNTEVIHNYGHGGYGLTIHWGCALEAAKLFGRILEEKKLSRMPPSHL

Target: recombinant human DAAO (Homo sapiens, UniProt P14920)
Assay: Inhibition of recombinant human DAAO
Format: biochemical

Question: Which IC50 does the source give for `O=c1[nH]nc(SCc2ccc3cc(F)ccc3c2)nc1O` [Compound 6m, 3-((6-fluoronaphthalen-2-yl)methylthio)-6-hydroxy-1,2,4-triazin-5(2H)-one] here?
Answer: Its IC50 is < 100 nM.

Question: How did the IC50 turn out when `O=c1[nH]nc(SCc2ccc3c(c2)OCO3)nc1O` [Compound 6o] was run?
Answer: The IC50 was < 100 nM.
